Data reported in patent US11518764B2, “Substituted heteroaryls as inhibitors of the BCL6 BTB domain protein-protein interaction” (Ontario Institute for Cancer Research (OICR), priority 2018, dated 2022).
Read-outs that look alike come from different tables or passages of the source.

Molecular target: BCL6 BTB domain (Homo sapiens (Human), UniProt P41182)
Assay: Surface plasmon resonance (SPR) assay
Format: binding
[1] = BCL6 BTB domain captured on SA chip, single cycle kinetics, read-out: SPR (KD)

## COc1c(O)c(C(N)=O)cc(-c2cn(CC(=O)Nc3cc(N4CCN(C)C[C@@H]4C)ncc3Cl)c3nc(C(F)(F)F)n(C)c(=O)c23)c1F [Compound I-266]
  Kd: 196 nM

## C[C@H]1CN(CC2CC2)CCN1c1cc(NC(=O)Cn2cc(-c3cc(C(N)=O)c(O)c(F)c3F)c3c(=O)n(C)cnc32)c(Cl)cn1 [Compound I-307]
[1]
  Kd: 33.4 nM

## [2H]C1(C([2H])([2H])N2CCN(c3cc(NC(=O)Cn4cc(-c5cc(C(N)=O)c(O)c(F)c5F)c5c(=O)n(C)cnc54)c(Cl)cn3)[C@@H](C)C2)CC1 [Compound I-370]
  Kd: 48.1 nM

## C[C@H]1COCCN1c1cc(NC(=O)Cn2cc(-c3cc(Cl)c(O)c(C(N)=O)c3)c3c(=O)n(C)c(N(C)C)nc32)c(Cl)cn1 [Compound I-263, (S)-3-chloro-5-(7-(2-((5-chloro-2-(3-methylmorpholino)pyridin-4-yl)amino)-2-oxoethyl)-2-(dimethylamino)-3-methyl-4-oxo-4,7-dihydro-3H-pyrrolo[2,3-d]pyrimidin-5-yl)-2-hydroxybenzamide]
[1]
  Kd: 141 nM
